Measurements as given in BindingDB's records for 12372498.

The chains behind the UniProt entries cited, without tags or fusion partners. Where a name states a change or a piece, a line headed by the entry shows the natural chain unless it says otherwise.
UniProt P18031: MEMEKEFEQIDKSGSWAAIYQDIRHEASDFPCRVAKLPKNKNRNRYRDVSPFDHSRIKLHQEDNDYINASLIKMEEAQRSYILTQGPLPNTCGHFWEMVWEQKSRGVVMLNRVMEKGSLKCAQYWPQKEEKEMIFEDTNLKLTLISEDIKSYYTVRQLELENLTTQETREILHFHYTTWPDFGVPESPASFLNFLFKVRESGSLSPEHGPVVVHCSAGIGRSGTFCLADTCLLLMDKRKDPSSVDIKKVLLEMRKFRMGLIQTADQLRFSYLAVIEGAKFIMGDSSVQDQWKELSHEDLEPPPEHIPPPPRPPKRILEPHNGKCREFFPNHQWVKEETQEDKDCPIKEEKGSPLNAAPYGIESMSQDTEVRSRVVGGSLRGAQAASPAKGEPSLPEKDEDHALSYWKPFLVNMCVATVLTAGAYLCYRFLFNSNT

Target: Tyrosine-protein phosphatase non-receptor type 1 (Homo sapiens, UniProt P18031)
Assay: ChEBML_162441

| Structure (SMILES) | Ki |
| --- | --- |
| O=C(CBr)c1ccc([N+](=O)[O-])cc1 | 195 µM |
| COc1ccc(C(=O)CBr)cc1 | 128 µM |
